The chains behind the UniProt entries cited, without tags or fusion partners. Residues count along the entry.
UniProt P04626, 23-1255 limits assumed: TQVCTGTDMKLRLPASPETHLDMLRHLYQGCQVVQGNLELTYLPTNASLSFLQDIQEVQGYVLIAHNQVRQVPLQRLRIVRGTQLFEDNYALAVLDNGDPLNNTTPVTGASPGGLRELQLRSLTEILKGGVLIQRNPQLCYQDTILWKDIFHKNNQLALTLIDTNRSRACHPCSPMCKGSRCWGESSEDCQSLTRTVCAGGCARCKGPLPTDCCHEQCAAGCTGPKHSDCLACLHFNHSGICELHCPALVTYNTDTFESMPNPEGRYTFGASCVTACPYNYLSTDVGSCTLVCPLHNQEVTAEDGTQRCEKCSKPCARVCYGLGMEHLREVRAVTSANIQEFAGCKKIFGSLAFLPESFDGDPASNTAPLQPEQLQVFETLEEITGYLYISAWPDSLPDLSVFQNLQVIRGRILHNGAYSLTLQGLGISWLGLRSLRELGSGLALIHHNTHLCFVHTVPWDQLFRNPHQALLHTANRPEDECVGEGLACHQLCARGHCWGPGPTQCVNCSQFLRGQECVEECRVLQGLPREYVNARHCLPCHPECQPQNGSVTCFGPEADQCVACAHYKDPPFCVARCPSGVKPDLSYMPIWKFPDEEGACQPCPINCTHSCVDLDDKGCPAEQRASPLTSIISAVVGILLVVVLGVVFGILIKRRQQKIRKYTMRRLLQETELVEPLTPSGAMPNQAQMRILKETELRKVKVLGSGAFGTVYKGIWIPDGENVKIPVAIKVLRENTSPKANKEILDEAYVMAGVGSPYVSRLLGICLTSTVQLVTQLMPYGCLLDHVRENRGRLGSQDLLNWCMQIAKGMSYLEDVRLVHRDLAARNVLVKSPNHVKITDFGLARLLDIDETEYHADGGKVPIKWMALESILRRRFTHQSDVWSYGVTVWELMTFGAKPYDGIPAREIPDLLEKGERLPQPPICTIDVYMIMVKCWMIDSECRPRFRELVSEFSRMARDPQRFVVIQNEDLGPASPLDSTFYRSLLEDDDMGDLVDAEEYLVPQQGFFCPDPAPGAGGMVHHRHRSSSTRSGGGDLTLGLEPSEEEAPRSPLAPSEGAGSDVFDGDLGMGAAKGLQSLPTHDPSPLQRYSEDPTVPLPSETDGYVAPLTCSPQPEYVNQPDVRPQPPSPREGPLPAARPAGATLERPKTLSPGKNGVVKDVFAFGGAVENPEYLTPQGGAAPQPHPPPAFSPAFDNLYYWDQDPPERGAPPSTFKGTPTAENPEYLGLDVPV

According to patent publication US8202879B2, “Quinazoline derivatives having tyrosine kinase inhibitory activity” (Shionogi & Co., Ltd., priority 2005, dated 2012):

What was measured:
BT-474 = assay: In vitro cell proliferation inhibition, WST assay; details: read-out: BT-474 (nM) proliferation inhibitory activity (IC50 value), BT-474 cells, cultured for 3 days
HER2 = HER2 (Homo sapiens, UniProt P04626); assay: Enzyme inhibitory activity on HER2 (time resolution fluorescence, biotinylated poly-Glu-Tyr substrate); details: read-out: HER2(nM) inhibitory activity (IC50 value); enzyme reaction at room temperature for 60 minutes

IC50 (BT-474) [nM]	IC50 (HER2) [nM]	Structure (SMILES)
9		CC#C/C(=N\OC[C@@H]1COCCN1)c1ccc2ncnc(Nc3ccc(OCc4cccc(F)c4)c(Cl)c3)c2c1 [VIII-101]
10		CC#C/C(=N\OC[C@H]1COCCN1)c1ccc2ncnc(Nc3ccc(OCc4cccc(F)c4)c(Cl)c3)c2c1 [VIII-102]
13	5.9	CC#C/C(=N\OC[C@@H]1COCCN1)c1ccc2ncnc(Nc3ccc(OCc4ccccn4)c(Cl)c3)c2c1 [VIII-169]
